# Assay results taken from patent US9295651B2, “Nanoconjugates and nanoconjugate formulations” (priority 2009, dated 2016).
# Assay: Lyophilization of PLGA-mPEG NPs in the presence of lyoprotectants, reconstitution with water, DLS
# Assay type: physicochemical
# Design: key to Aggr. (visible large aggregates): Y = aggregates observed; N = no aggregates observed
# Conditions: for Size in nm: PLGA-mPEG NPs lyophilized and reconstituted
# Protocol: Lyophilization of PLGA-mPEG NPs in the presence of lyoprotectants. An acetone solution of PLGA-mPEG (5 mg/mL, 100 μL) was added dropwise into a vigorously stirred water solution (4 mL) containing the NCs to make the PLGA-mPEG NPs. A lyoprotectant was added to the vigorously stirred NC solution at the selected lyoprotectant/NC mass ratio (varying from 2 to 20). The solution was then lyophilized, reconstituted with 2 mL water and stirred for 5 minutes. The sizes of the resulting NCs were analyzed by DLS.
substance,measurement,setting,value
bovine serum albumin [BSA],prevention of NP aggregation during lyophilization (in words),"PLGA-mPEG5k NPs, lyoprotectant/NP mass ratio up to 10",absolutely no precipitates
same,Size in nm,lyoprotectant/NP mass ratio 2,512 nm and 511.8 nm
same,Size in nm,lyoprotectant/NP mass ratio 6,176 nm and 175.9 nm
same,Size in nm,lyoprotectant/NP mass ratio 10,114 nm and 114.1 nm
same,Aggr. (visible large aggregates),lyoprotectant/NP mass ratio 2,Y
same,Distr. No. (number of particle size distributions),lyoprotectant/NP mass ratio 2,2
same,PDI,lyoprotectant/NP mass ratio 2,0.392
same,SL/SO (ratio of lyophilized NP size to pre-lyophilized NP size),lyoprotectant/NP mass ratio 2,8.2 and 8.21
same,Aggr. (visible large aggregates),lyoprotectant/NP mass ratio 6,N
same,Distr. No. (number of particle size distributions),lyoprotectant/NP mass ratio 6,1
same,PDI,lyoprotectant/NP mass ratio 6,0.343
same,Aggr. (visible large aggregates),lyoprotectant/NP mass ratio 10,N
same,Distr. No. (number of particle size distributions),lyoprotectant/NP mass ratio 10,1
same,PDI,lyoprotectant/NP mass ratio 10,0.110
same,SL/SO (ratio of lyophilized NP size to pre-lyophilized NP size),lyoprotectant/NP mass ratio 10,~1.8 and 1.83

# Several values for one entry are separate records, joined by “and”; a condition that tells them apart may be missing. Equal values may be shown once.
